Earlier results on one substance are cited in publication PMC7939532 (Oncotarget, 2021).

Amino acid sequences for entries named in this document (tags omitted).
UniProt Q92847, whole entry, species assumed: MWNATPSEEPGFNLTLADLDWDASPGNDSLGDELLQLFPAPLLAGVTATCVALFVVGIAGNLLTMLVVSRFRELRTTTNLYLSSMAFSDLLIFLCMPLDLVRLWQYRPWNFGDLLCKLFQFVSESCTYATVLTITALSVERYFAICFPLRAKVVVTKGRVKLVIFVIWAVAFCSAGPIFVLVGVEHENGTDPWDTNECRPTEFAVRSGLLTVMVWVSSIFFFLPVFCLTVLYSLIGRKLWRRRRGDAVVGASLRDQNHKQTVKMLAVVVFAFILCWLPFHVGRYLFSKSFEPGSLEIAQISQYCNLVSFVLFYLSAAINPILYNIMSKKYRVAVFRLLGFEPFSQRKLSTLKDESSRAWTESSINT

The data set addresses Ghrelin receptor (Homo sapiens, UniProt Q92847). Set-up: expressed in transfected cells; host or cells: COS-7. The following applies: first inverse agonist chelate, previously developed; cited from earlier work.

For “[^natGa]Ga-NODAGA-KwFwLL-NH2 (KWFWLL) [compound 1, first inverse agonist chelate, earlier work of the group; ^68Ga form in b7]”, the EC50 (commonly the concentration needed to bring the measured effect to its halfway point) is 624 nM.
